Structures are written as SMILES. This is a selection; strong and weak results do not stand in their true shares. Some results for these compounds are left out of this collection, so the calls shown say nothing about other tests. The source made the active and inactive calls.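 The calls were made as follows: active = initial fluorescence not abnormally high and integrated response B-score, plate-corrected, over 3 SD above library mean; inactive = the rest.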

By UniProt entry, the sequences of proteins in these tests, tags left out. Where a name states a change or a piece, a line headed by the entry shows the natural chain unless it says otherwise.
UniProt Q9GZV3, whole entry, stated change not applied: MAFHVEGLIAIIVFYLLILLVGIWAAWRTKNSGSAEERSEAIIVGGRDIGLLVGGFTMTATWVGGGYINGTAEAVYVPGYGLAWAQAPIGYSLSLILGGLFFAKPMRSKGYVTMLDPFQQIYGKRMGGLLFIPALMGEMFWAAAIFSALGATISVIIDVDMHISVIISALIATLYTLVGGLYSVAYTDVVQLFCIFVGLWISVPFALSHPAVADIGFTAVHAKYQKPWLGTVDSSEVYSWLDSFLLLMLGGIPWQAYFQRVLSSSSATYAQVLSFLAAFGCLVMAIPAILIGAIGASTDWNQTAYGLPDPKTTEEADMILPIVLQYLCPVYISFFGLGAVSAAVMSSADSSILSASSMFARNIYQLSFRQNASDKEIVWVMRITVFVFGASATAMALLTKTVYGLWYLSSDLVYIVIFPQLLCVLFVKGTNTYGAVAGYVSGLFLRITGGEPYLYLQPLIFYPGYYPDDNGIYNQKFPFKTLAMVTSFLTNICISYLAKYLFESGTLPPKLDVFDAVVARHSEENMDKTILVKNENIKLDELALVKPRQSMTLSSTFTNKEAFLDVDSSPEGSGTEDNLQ

In the assay the target is High affinity choline transporter 1 (Homo sapiens) (UniProt Q9GZV3). Description: CHT positive allosteric modulators, primary screen, cell-based, membrane potential dye, choline EC20 (AID 488977). Particulars: CHT-expressing cells, at 10 µM, LV-AA mutant CHT in HEK293 cells.
Regarding `CCCCC(CC)C(=O)N1CCN(C/C=C/c2ccccc2)CC1` (stereo unspecified), the result was inactive.

The record behind these values is PubChem BioAssay AID488977 (Johns Hopkins Ion Channel Center, 2010).
